Laboratory results: US9493412B2, “Pyrrolinone carboxamide compounds useful as endothelial lipase inhibitors” (BRISTOL-MYERS SQUIBB COMPANY, priority 2011, dated 2016)

Chains of the proteins cited; added tags and fusions are not shown. Residues count along the entry.
UniProt Q9Y5X9, 21-500 limits assumed: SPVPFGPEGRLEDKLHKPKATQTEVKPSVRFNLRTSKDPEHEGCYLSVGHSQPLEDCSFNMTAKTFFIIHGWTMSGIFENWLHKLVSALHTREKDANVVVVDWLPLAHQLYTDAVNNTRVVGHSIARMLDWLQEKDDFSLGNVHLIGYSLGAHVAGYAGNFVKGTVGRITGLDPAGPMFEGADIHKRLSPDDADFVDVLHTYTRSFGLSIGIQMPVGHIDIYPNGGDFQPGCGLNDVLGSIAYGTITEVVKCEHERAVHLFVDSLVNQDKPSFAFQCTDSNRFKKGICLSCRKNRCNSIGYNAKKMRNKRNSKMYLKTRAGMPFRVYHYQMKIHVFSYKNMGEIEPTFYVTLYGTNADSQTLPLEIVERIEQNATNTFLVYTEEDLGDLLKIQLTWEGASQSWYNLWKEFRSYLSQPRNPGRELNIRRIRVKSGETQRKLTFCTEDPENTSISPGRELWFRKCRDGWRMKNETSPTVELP

Target: endothelial lipase (EL) (Homo sapiens (Human), UniProt Q9Y5X9)
Test: Endothelial lipase (EL) enzymatic assay with fluorescent substrate A10070 in DMPG vesicles
Conditions: read-out: HLE_EL_CRC IC50; conditioned media from HT-1080 cells overexpressing endogenous EL; 20 min preincubation at 37° C.

## O=C(N[C@H]1CC[C@@H](c2ccccc2)CC1)C1=C(O)C(=O)N2CCCCC12 (stereo partly shown)
  pIC50: 5.08

pIC50: −log10 of the molar value.
